Common to all, as to assay: FRET or BRET
(In general: BRET reads energy transfer from a luciferase to a nearby fluorophore.)

One experiment addresses T1, Rluc-tagged APJ-S345A (UniProt P35414 1-380, S345A).
T1 sequence: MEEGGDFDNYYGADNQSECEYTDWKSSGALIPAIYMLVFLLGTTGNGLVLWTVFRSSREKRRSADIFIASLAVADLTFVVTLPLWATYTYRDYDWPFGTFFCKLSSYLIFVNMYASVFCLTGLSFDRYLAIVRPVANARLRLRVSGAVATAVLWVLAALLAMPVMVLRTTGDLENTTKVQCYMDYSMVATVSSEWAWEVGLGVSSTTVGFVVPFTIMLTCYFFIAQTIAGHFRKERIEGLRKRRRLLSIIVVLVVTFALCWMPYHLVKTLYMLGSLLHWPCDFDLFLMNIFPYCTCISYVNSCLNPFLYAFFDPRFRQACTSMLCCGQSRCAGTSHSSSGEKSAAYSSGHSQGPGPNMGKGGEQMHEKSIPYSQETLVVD

For a further experiment, the target named is T2, Rluc-tagged APJ-S348A (UniProt P35414 1-380, S348A).
T2 sequence: T1 sequence with A345S, S348A

The next experiment deals with T3, Rluc-tagged APJ-S369A (UniProt P35414 1-380, S369A).
T3 sequence: T1 sequence with A345S, S369A

Experiment [1] has as its target T4, Rluc-tagged WT APJ (apelin receptor) (UniProt P35414 1-380).
T4 sequence: T1 sequence with A345S

The target in another experiment is T5, Rluc-tagged APJ-S335A (UniProt P35414 1-380, S335A).
T5 sequence: T1 sequence with S335A, A345S

A further experiment addresses T6, Rluc-tagged APJ-S339A (UniProt P35414 1-380, S339A).
T6 sequence: T1 sequence with S339A, A345S

Where a chain is given by its changes, count along the chain named.

B1: EGFP-tagged β-arrestin1 (natural protein)
chain: MGDKGTRVFKKASPNGKLTVYLGKRDFVDHIDLVDPVDGVVLVDPEYLKERRVYVTLTCAFRYGREDLDVLGLTFRKDLFVANVQSFPPAPEDKKPLTRLQERLIKKLGEHAYPFTFEIPPNLPCSVTLQPGPEDTGKACGVDYEVKAFCAENLEEKIHKRNSVRLVIRKVQYAPERPGPQPTAETTRQFLMSDKPLHLEASLDKEIYYHGEPISVNVHVTNNTNKTVKKIKISVRQYADICLFNTAQYKCPVAMEEADDTVAPSSTFCKVYTLTPFLANNREKRGLALDGKLKHEDTNLASSTLLREGANREILGIIVSYKVKVKLVVSRGGLLGDLASSDVAVELPFTLMHPKPKEEPPHREVPESETPVDTNLIELDTNDDDIVFEDFARQRLKGMKDDKDEEDDGTGSPHLNNR
For B1, the “EC50 of apelin-36 for the BRET between the pair” value with Rluc-tagged APJ-S345A turned out to be 4.36 nM; in the experiment with Rluc-tagged APJ-S348A, 4.95 nM; with Rluc-tagged APJ-S369A it was 4.99 nM; in experiment [1], 4.54 nM; in the experiment with Rluc-tagged APJ-S335A, 4.5 nM; in the experiment with Rluc-tagged APJ-S339A it was 9.72 nM.

For the origin of these results see PMC7338617 (Redox Biology, 2020).
